{"source": "patent US7276644", "proteins": {"B1": {"name": "recombinant wild type chicken smooth muscle myosin HMM (protein)", "chain 1": "MSQKPLSDDEKFLFVDKNFVNNPLAQADWSAKKLVWVPSEKHGFEAASIKEEKGDEVTVELQENGKKVTLSKDDIQKMNPPKFSKVEDMAELTCLNEASVLHNLRERYFSGLIYTYSGLFCVVINPYKQLPIYSEKIIDMYKGKKRHEMPPHIYAIADTAYRSMLQDREDQSILCTGESGAGKTENTKKVIQYLAVVASSHKGKKDTSITQGPSFSYGELEKQLLQANPILEAFGNAKTVKNDNSSRFGKFIRINFDVTGYIVGANIETYLLEKSRAIRQAKDERTFHIFYYLIAGASEQMRNDLLLEGFNNYTFLSNGHVPIPAQQDDEMFQETLEAMTIMGFTEEEQTSILRVVSSVLQLGNIVFKKERNTDQASMPDNTAAQKVCHLMGINVTDFTRSILTPRIKVGRDVVQKAQTKEQADFAIEALAKAKFERLFRWILTRVNKALDKTKRQGASFLGILDIAGFEIFEINSFEQLCINYTNEKLQQLFNHTMFILEQEEYQREGIEWNFIDFGLDLQPCIELIERPTNPPGVLALLDEECWFPKATDTSFVEKLIQEQGNHAKFQKSKQLKDKTEFCILHYAGKVTYNASAWLTKNMDPLNDNVTSLLNQSSDKFVADLWKDVDRIVGLDQMAKMTESSLPSASKTKKGMFRTVGQLYKEQLTKLMTTLRNTNPNFVRCIIPNHEKRAGKLDAHLVLEQLRCNGVLEGIRICRQGFPNRIVFQEFRQRYEILAANAIPKGFMDGKQACILMIKALELDPNLYRIGQSKIFFRTGVLAHLEEERDLKITDVIIAFQAQCRGYLARKAFAKRQQQLTAMKVIQRNCAAYLKLRNWQWWRLFTKVKPLLQVTRQEEEMQAKDEELQRTKERQQKAEAELKELEQKHTQLCEEKNLLQEKLQAETELYAEAEEMRVRLAAKKQELEEILHEMEARIEEEEERSQQLQAEKKKMQQQMLDLEEQLEEEEAARQKLQLEKVTADGKIKKMEDDILIMEDQNNKLTKERKLLEERVSDLTTNLAEEEEKAKNLTKLKNKHESMISELEVRLKKEEKSRQELEKIKRKLEGESSDLHEQIAELQAQIAELKAQLAKKEEELQAALARLEDETSQKNNALKKIRELESHISDLQEDLESEKAARNKAEKQKRDLSEELEALKTELEDTLDTTATQQELR", "chain 2": "SSKRAKAKTTKKRPQRATSNVFAMFDQSQIQEFKEAFNMIDQNRDGFIDKEDLHDMLASMGKNPTDEYLEGMMSEAPGPINFTMFLTMFGEKLNGTDPEDVIRNAFACFDEEASGFIHEDHLRELLTTMGDRFTDEEVDEMYREAPIDKKGNFNYVEFTRILKHGAKDKDD", "chain 3": "CDFSEEQTAEFKEAFQLFDRTGDGKILYSQCGDVMRALGQNPTNAEVMKVLGNPKSDEMNLKTLKFEQFLPMMQTIAKNKDQGCFEDYVEGLRVFDKEGNGTVMGAEIRHVLVTLGEKMTEEEVEQLVAGHEDSNGCINYEELVRMVLSG"}}, "biological_target": "F-actin prepared from acetone powder of rabbit muscle, P68135", "assay": "stopped-flow light scattering at 340 nm, 15 °C; acto-HMM with MgADP mixed with MgATP", "data": [{"protein": "B1", "values": [{"measurement": "Kobs for acto-HMM-ADP dissociation against 2.5 and 5.0 mM MgATP", "value": "Kobs for acto-HMM-ADP dissociation against 2.5 and 5.0 mM MgATP was identical for both mutant and wild-type SmM HMM's, yielding rates of 46 s^-1"}]}]}
